Reference: patent US20030032774A1, “Novel opioid peptides for the treatment of pain” (priority 1994, published 2003)

The chains behind the UniProt entries cited, without tags or fusion partners.
UniProt P97266, whole entry, looked up: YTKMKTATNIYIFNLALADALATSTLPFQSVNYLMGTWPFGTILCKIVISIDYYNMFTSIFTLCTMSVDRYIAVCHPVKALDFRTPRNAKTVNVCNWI
UniProt P33535, whole entry: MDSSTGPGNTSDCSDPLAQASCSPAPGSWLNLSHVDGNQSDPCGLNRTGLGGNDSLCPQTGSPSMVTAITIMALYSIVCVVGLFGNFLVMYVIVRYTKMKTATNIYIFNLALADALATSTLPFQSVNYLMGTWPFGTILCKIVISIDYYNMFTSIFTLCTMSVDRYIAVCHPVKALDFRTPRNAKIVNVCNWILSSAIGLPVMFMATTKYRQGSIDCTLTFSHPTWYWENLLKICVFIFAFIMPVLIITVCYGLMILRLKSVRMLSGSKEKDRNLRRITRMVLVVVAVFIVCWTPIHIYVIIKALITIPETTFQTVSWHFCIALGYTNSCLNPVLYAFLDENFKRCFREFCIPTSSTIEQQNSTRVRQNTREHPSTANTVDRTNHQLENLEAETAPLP

Legend:
[1] = target: μ receptors (Cavia porcellus, UniProt P97266); assay: Guinea Pig Ileum (GPI) assay, longitudinal muscle preparation; conditions: Table 1
Method: The activity of the peptide compounds on μ receptors was determined using the Guinea Pig Ileum (GPI) assay (longitudinal muscle preparation) according to the procedures described in Schiller et al., Biophys. Res. Commun. 85:1322 (1975).

[2] = system: mice; assay: Lethal effects / safety in mice; conditions: doses up to 20 mg/kg i.v.
[3] = target: T1, μ receptor (Rattus norvegicus, UniProt P33535); assay: Radioligand binding assay, μ opioid receptor ((3H)-DAMGO, brain membranes); conditions: Table 1
T1 construct: the brains (minus the cerebellum) were removed, placed in ice-cold saline solution, and then homogenized; from tissue; host or cells: rat brain (minus cerebellum) membranes
Method: PBQ (phenyl-ρ-benzoquinone) induced writhing in mice is an assessment of both central and peripheral analgesia (see Sigmund, et al., Proc. Soc. Exp. Biol. Med. 95:729 (1957)). Central analgesia is determined by the inhibition of a hot-plate response in mice (see, Wolfe, et al., J. Pharmacol. Exp. Ther. 80:300 (1944)). Assays measuring opioid receptor binding affinities for μ and δ receptors as well as the GPI assay were determined through experimental protocol set out in Schiller et al. (Biophys. Res. Commun. 85:1322 (1975)). The references by Sigmund, et al., Wolfe, et al., and Schiller, et al. are each hereby incorporated by reference.
Male Sprague-Dawley rats weighing between 350-450 g were sacrificed by inhalation of CO2. […] The pellets were re-suspended in approximately 6 ml/brain of ice-cold Tris buffer 50 mM pH 7.4 and stored at −78° C. until ready for use. Protein quantification of the brain homogenate was conducted according to protein assay kit purchased (Bio-Rad).
(^3H)-DAMGO and (^3H)-DAGLE were used as radioligands for the μ and δ receptors, respectively. […] Nonspecific binding was determined using a 500 fold excess of unlabeled ligand in the presence of tracer and membranes. […] The filters were dried and radioactivity was counted in a 24 well microplate in the presence of 500 μl scintillant per well. Radioactivity was measured using a Wallace 1450 Microbeta counter. […]

What does the source list for H-Tyr-D-Ser-Phe-Phe-NH2 [BCH2463]?
IC50 [1]: 13 nM; lethal effects upon mice [2]: did not exhibit any lethal effects; Ki [3]: 2.2 nM
